## Antibody variant affinities, Ab-14 heavy chain, assay B

Source: Li et al. 2023 (doi:10.1038/s41467-023-39022-2), MIT Lincoln Laboratory and A-Alpha Bio; data file from the FLAb repository.

Target peptide (SARS-CoV-2 spike, HR2 region): PDVDLGDISGINAS

Ab-14 is the parent antibody, in scFv form: VH, then a (GGGGS)3 linker, then VL. The light chain is unchanged in all variants.
VH: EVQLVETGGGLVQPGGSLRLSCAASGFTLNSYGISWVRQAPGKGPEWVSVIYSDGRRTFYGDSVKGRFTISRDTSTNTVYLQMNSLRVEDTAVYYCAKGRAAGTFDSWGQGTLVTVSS
VL: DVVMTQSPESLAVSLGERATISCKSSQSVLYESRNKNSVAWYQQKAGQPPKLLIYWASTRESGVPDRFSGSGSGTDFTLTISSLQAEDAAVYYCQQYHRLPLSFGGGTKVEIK

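The starting antibody came from a phage panning campaign against this peptide. The variants were designed computationally from a first round of random CDR variants and then made and measured. Several design methods are mixed in this list. The scFvs were displayed on barcoded MATa yeast, the peptide on MATalpha yeast. After mating in shaken culture at 30 °C for 16 h, diploids were selected and their barcode pairs sequenced. Read counts were normalised to the haploid input and turned into Kd by a linear fit to BCL2-family pairs of known affinity, for each replicate. Each pool was mated in six replicate cultures.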

Changes read parent residue, position, new residue, counted from the first residue of the VH shown.
Variants here have at most six changes.
Numbers give log10(Kd / nM), so 0 is 1 nM and 3 is 1 µM. Smaller is tighter.
A mean of the replicates is given; it leaves out those without a signal.
"nd" marks a missing value. The strain was present, yet no cells mated with the target were sequenced in any replicate, which points to weak or no binding.

For R56S F59A, the assay gave 2.11 (4 of 6 replicates). For T28D S31E S53A G61A R100E A101I, the assay gave -0.67 (6 of 6 replicates). The variant S31E G61I R100Q showed 0.63 (5 of 6 replicates). With S31D S35P R56V F59S D106V the result was nd (0 of 6 replicates). The variant T28E R100E S107K gave 0.69 (4 of 6 replicates). For G61A R100Q A101T, the assay gave 0.08 (6 of 6 replicates). The variant T28V S31D G61A S107E gave 0.88 (6 of 6 replicates).

The variant T28E N30E G61A A101T gave 0.32 (6 of 6 replicates). With S31D F59M the result was 0.96 (5 of 6 replicates). With G26K G61D A101E T104K D106R the result was nd (0 of 6 replicates). The variant T28G S31D G61I S63R gave 1.84 (2 of 6 replicates). The variant T28S G61A R100A A101T gave -0.05 (6 of 6 replicates). The variant T28Q G61A S63R R100E S107K showed 1.17 (6 of 6 replicates). The variant N30L S31E S35H S107E showed 1.93 (3 of 6 replicates).

The variant S31D D106T S107I gave 0.04 (6 of 6 replicates). The variant R56E S63E S107V showed 2.01 (4 of 6 replicates). For T28N R100E, the assay gave 0.64 (6 of 6 replicates). The variant S31E G61S R100Q A101L gave -0.23 (6 of 6 replicates). With T28S G61A A101T S107G the result was 0.21 (6 of 6 replicates). With G26T S53A D106H the result was 2.20 (4 of 6 replicates). With N30E S63D R100Q the result was 1.55 (5 of 6 replicates).

The variant S31E R56V A101T showed 0.01 (6 of 6 replicates). With S31E G33V G103V S107Q the result was nd (0 of 6 replicates). With S31Q R57E G61S A101S A102W T104F the result was nd (0 of 6 replicates). The variant T28E S31E G61D A101F gave 0.26 (6 of 6 replicates). The variant T28W S53A R100V showed 0.29 (6 of 6 replicates). For T28Q G61Q R100E, the assay gave 1.30 (5 of 6 replicates). For T28K R56I, the assay gave 1.69 (5 of 6 replicates).

The variant R56K R100Q A101E S107T showed 0.20 (6 of 6 replicates). The variant N30D G99P F105A D106L showed nd (0 of 6 replicates). With T28D G61A R100H the result was 0.76 (6 of 6 replicates). The variant R56V R100E showed -0.52 (6 of 6 replicates). The variant T28S S31N S63A A101T gave 0.77 (6 of 6 replicates). For S31D R57C F59Q G61I, the assay gave nd (0 of 6 replicates). The variant F27T S31D R56M F59E G61Y showed 1.94 (1 of 6 replicates).

With T28G S31E A101T S107T the result was 1.25 (6 of 6 replicates). The variant T28Q F59A S63N A101N gave 0.69 (6 of 6 replicates). For S31Q R56K G61S R100E, the assay gave 0.36 (6 of 6 replicates). With S31D A101H D106E the result was 2.54 (6 of 6 replicates). The variant T28S G61A A101T S107Q showed 0.21 (6 of 6 replicates). With S31D I34Y S53A G61S A101V S107D the result was 0.85 (6 of 6 replicates). For T28D G61L D62L T104W D106N, the assay gave nd (0 of 6 replicates).

For S31L, the assay gave 0.99 (2 of 6 replicates). For G61T G103L D106E, the assay gave nd (0 of 6 replicates). For N30E R100Q T104L, the assay gave nd (0 of 6 replicates). With T28S R100Q S107T the result was 2.03 (5 of 6 replicates). The variant T28S G61A S63Q R100Q A101T showed 0.19 (6 of 6 replicates). The variant K65S R100E A102I T104C gave nd (0 of 6 replicates).

The last 5 entries again:

With G61T G103L D106E the result was nd (0 of 6 replicates).
With N30E R100Q T104L the result was nd (0 of 6 replicates).
With T28S R100Q S107T the result was 2.03 (5 of 6 replicates).
With T28S G61A S63Q R100Q A101T the result was 0.19 (6 of 6 replicates).
With K65S R100E A102I T104C the result was nd (0 of 6 replicates).

Empty control strains, which show no peptide, gave a signal in 1% of pairings with all heavy chain designs; the median was 2.08 and 95% of these signals were weaker than 0.84. No background was subtracted.
In the paper, a design with two or fewer of six values counts as a poor binder.
Of ten entries with the parent sequence, four were seen in most replicates (averages 0.34 to 2.37), three in one and three in none, so single entries are noisy.
Values of this round are not directly comparable with the first-round values of the same sequences.